From ChEMBL document CHEMBL4507301, “Data for DCP probe (R)-9s” (2021)

Chains of the proteins cited; added tags and fusions are not shown.
UniProt P18089, whole entry: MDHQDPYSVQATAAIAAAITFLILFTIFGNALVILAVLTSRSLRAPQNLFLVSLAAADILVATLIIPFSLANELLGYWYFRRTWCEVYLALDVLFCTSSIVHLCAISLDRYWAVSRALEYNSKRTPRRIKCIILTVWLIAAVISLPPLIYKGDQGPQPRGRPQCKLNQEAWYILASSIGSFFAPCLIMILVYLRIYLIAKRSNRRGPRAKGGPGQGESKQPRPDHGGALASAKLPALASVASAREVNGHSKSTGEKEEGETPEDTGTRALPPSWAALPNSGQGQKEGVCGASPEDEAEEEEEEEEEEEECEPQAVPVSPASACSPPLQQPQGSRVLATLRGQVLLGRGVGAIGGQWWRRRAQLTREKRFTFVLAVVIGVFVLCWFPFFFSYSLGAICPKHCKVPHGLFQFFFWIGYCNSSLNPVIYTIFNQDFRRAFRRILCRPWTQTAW

What was measured:
[1] = biological target: T1, Alpha-1A adrenergic receptor (Homo sapiens) (UniProt P35348); settings: Compound concentration 10.0 uM
T1 sequence (whole entry): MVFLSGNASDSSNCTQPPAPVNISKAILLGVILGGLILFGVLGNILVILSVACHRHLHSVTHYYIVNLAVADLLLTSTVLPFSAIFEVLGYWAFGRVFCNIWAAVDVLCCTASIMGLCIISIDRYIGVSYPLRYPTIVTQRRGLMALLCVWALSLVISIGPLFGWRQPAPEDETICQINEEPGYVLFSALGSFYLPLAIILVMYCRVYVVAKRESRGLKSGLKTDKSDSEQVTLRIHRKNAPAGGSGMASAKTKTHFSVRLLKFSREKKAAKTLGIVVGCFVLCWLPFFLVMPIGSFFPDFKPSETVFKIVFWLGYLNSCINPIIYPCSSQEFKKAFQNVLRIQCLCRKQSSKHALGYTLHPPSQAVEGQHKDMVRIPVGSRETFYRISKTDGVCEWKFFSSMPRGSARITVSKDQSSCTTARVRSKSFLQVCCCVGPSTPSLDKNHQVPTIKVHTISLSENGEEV

[2] = biological target: Alpha-2B adrenergic receptor (Homo sapiens, UniProt P18089); settings: Compound concentration 10.0 uM

C[C@H](c1cccc(C#N)c1)n1cc(Cl)cc(C(N)=O)c1=N [(R)-9s]
inhibition [1]: 83.9% | inhibition [2]: 80.1%
